# Test results from US20080026998.
# Read-outs that look alike come from different tables or passages of the source.
# Columns and labels:
# plasmin (human) [1] = target: plasmin (human) (UniProt P00747)
# plasmin (human) [2] = target: plasmin (human) (UniProt P00747); remark: listed apart in the source
# plasmin (human) [3] = target: plasmin (human) (UniProt P00747); remark: listed apart in the source
# plasmin (human) [4] = target: plasmin (human) (UniProt P00747); remark: listed apart in the source
# plasmin (human) [5] = target: plasmin (human) (UniProt P00747); remark: listed apart in the source
# plasmin (human) [6] = target: plasmin (human) (UniProt P00747); remark: listed apart in the source
substance,measurement,setting,value
BPTI (aprotinin) (from UniProt P00974),Ki,plasmin (human) [1],0.23 nM
same,Ki,plasmin (human) [2],0.35 nM
same,Ki,trypsin,5 nM
same,Ki,plasmin (human) [3],0.75 nM
same,Ki,plasmin (human) [4],0.36 nM
same,Ki,plasmin (human) [5],0.3 nM
same,Ki,plasmin (human) [6],0.8 nM
